Experimental data: PubChem BioAssay AID602254 (Broad Institute, 2012)
The list shows a part of the results, in another mix than the full data. Entries with a potency or affinity are not part of this list. Activity calls are given as the source filed them.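 Rule for the calls: active = fitted half-maximal concentration no higher than twice the top valid tested dose, with signal falling; inconclusive = flat curve with 30 to 70% inhibition, or poor fit; inactive = the rest.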

Biological target: Golgi-associated PDZ and coiled-coil motif-containing protein (Homo sapiens) (UniProt Q9HD26)
Assay: CAL PDZ domain peptide-binding inhibitors, dose response, biochemical, fluorescence polarization, untagged CAL PDZ, cherry-pick, set 2 (AID 602254);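 note: 0% = DMSO neutral control and -100% = unlabeled peptide PRC23 positive control; more negative means stronger blocking of peptide binding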
Conditions: Purified CAL PDZ, TMR peptide fluorescence polarization; at 60 µM (top of the series)

| SMILES | activity change, negative = inhibition |
| --- | --- |
| COc1ccc(N/C(=N/P(=O)(N2CCOCC2)N2CCOCC2)N2CCOCC2)cc1 | inactive: 0.226% |
